Results: PMC10548181 (RSC Advances, 2023)

Amino acid sequences for entries named in this document (tags omitted). A change or cut given only in a name is not applied to a line headed by its entry.
UniProt P42338: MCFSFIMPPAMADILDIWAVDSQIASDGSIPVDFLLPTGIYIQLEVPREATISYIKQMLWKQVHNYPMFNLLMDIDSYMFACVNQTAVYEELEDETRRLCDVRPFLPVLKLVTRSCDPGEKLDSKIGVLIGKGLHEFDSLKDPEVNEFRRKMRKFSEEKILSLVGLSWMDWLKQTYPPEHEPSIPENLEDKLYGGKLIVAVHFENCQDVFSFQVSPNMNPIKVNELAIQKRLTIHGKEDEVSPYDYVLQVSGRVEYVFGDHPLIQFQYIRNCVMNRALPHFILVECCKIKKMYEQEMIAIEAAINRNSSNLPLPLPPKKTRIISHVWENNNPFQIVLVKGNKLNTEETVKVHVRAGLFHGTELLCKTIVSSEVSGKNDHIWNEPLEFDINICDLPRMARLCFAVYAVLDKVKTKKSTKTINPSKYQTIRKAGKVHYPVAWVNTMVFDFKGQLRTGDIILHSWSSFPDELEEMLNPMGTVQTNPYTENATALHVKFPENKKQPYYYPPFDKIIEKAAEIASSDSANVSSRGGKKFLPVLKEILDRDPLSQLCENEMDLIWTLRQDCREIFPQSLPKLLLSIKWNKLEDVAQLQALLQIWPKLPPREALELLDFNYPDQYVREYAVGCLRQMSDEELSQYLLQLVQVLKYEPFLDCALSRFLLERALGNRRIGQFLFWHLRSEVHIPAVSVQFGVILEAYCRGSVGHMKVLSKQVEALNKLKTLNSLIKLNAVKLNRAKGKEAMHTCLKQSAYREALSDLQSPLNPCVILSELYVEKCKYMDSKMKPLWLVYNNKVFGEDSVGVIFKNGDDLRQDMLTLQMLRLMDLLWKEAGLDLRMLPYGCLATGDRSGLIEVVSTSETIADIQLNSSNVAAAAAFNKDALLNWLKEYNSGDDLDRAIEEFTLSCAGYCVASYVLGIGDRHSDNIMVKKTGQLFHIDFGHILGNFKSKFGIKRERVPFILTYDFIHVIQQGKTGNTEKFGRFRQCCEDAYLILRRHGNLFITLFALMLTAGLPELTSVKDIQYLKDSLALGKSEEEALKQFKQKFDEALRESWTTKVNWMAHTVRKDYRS

Target: PI3Kβ (p110β/p85α) (Homo sapiens, UniProt P42338)
Experiment: In vitro PI3K activity assay
Format: biochemical

## O=c1cc(N2CCOCC2)oc2c(-c3ccccc3)cccc12 [LY294002, reference compound]
  IC50: 38 ± 2 nM
